Assay results taken from PubChem BioAssay AID2796 (The Scripps Research Institute Molecular Screening Center, 2010).
Only a part is listed here, and it is no random draw. Some tests of the compounds listed are not included; inactive here does not mean inactive elsewhere. Calls of active or inactive are those of the source. Rule as the data show it: active = activation above about 47%; inactive = the rest.

Chains of the proteins cited; added tags and fusions are not shown.
UniProt P35869, whole entry: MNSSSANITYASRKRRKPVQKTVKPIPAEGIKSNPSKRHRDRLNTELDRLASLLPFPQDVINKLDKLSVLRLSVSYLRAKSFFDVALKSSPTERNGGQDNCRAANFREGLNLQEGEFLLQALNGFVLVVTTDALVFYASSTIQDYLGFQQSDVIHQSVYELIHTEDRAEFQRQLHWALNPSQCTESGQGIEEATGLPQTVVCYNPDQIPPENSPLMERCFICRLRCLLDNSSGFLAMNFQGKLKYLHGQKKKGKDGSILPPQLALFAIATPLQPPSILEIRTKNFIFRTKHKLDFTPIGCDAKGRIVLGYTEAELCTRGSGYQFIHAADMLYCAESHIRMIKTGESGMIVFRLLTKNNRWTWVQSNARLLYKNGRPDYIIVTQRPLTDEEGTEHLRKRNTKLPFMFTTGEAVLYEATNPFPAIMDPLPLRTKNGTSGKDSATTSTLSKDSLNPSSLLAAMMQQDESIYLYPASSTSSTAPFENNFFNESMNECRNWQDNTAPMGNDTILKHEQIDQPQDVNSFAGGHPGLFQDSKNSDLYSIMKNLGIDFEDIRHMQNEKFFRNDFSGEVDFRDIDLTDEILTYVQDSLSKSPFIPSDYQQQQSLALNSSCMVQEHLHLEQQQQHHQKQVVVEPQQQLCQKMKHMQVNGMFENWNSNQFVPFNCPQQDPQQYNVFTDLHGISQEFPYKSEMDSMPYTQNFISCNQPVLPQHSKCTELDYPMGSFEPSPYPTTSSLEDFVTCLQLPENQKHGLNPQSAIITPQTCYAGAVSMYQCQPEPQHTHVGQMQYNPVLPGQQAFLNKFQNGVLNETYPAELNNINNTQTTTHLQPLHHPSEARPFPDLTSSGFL

Biological target: Aryl hydrocarbon receptor (Homo sapiens) (UniProt P35869)
Assay: AHR activators, primary screen, cell-based, luminescence, luciferase reporter, human (AID 2796);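 also: 0% = vehicle wells and 100% = reference agonist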
Conditions: AHR-responsive luciferase reporter cells, at 5 µM, active compounds read high

| SMILES | activation |
| --- | --- |
| CC(C)Oc1ccc(C(=O)NCC2(N(C)C)CCCCC2)cc1 | inactive: 1.96% |
| CN(C)c1cccc(C(=O)NCC2(N(C)C)CCCCC2)c1 | inactive: 2.9% |
| COc1ccc(Br)c(C(=O)NCC2(N3CCCCC3)CCCCC2)c1 | inactive: 2.39% |
| O=C(OC1CN2CCC1CC2)C(CO)(c1ccccc1)c1ccccc1 (centres undefined) | inactive: 1.5% |
| O=C(NCC1(N2CCCCC2)CCCCC1)c1cccc(Cl)c1 | inactive: -0.1% |
| COc1cccc(C(=O)NCC2(N3CCCCC3)CCCCC2)c1 | inactive: 1.41% |
| COc1ccc(Cl)cc1C(=O)NCC1(N(C)C)CCCCC1 | inactive: 1.06% |
| COc1cc(C(=O)NCC2(N(C)C)CCCCC2)c([N+](=O)[O-])cc1OC | inactive: 0.97% |
| CN(C)C1(CNC(=O)c2ccc(Br)cc2)CCCCC1 | inactive: 5.3% |
| COc1ccc(C(=O)NCC2(N(C)C)CCCCC2)cc1 | inactive: 1.07% |
| CCN1CCCC(OC(=O)C2(O)c3ccccc3C=Cc3ccccc32)C1 (centres undefined) | inactive: 0.18% |
| Cc1cc(C(=O)NCC2(N3CCCCC3)CCCCC2)ccc1[N+](=O)[O-] | inactive: -0.57% |
| O=C(NCC1(N2CCCCC2)CCCCC1)c1cccc(Br)c1 | inactive: 0.97% |
| C=CCN1CCN(CCOC(=O)C(O)(c2ccccc2)c2ccccc2)CC1 | inactive: -1.11% |
| O=C(NCC1(N2CCCCC2)CCCCC1)c1cc(F)c(F)cc1Cl | inactive: -1.23% |
| Cc1ccccc1C(=O)NCC1(N2CCCCC2)CCCCC1 | inactive: 0.84% |
| CN(C)c1ccc(C(=O)NCC2(N(C)C)CCCCC2)cc1 | inactive: 1.24% |
| CN(C)C1CCCC1OC(=O)C(O)(c1ccccc1)c1ccccc1 (centres undefined) | inactive: -3.41% |
| Cc1ccc(C(=O)NCC2(N3CCCCC3)CCCCC2)cc1 | inactive: 1.93% |
| CCN(CC)CC(C)C(C)OC(=O)C(O)(c1ccccc1)c1ccccc1 (centres undefined) | inactive: -0.06% |
| COc1cc(SC)ccc1C(=O)NCC1(N(C)C)CCCCC1 | inactive: 2.37% |
| CC(C)N1C(=O)CC2(CCN(CCOC(=O)C(O)(c3ccccc3)c3ccccc3)CC2)C1=O | inactive: 10.2% |
| CN1[C@@H]2CC[C@H]1CC(OC(=O)C(O)(c1ccccc1)c1ccccc1)C2 (some centres undefined) | inactive: -0.36% |
| O=C(NCC1(N2CCCCC2)CCCCC1)c1cc([N+](=O)[O-])ccc1Cl | inactive: 0.03% |
